Source: ChEMBL document CHEMBL4251662, “Alkyl indole-based cannabinoid type 2 receptor tools: Exploration of linker and fluorophore attachment” (Eur J Med Chem, 2018)

Amino acid sequences for entries named in this document (tags omitted).
UniProt P21554, whole entry: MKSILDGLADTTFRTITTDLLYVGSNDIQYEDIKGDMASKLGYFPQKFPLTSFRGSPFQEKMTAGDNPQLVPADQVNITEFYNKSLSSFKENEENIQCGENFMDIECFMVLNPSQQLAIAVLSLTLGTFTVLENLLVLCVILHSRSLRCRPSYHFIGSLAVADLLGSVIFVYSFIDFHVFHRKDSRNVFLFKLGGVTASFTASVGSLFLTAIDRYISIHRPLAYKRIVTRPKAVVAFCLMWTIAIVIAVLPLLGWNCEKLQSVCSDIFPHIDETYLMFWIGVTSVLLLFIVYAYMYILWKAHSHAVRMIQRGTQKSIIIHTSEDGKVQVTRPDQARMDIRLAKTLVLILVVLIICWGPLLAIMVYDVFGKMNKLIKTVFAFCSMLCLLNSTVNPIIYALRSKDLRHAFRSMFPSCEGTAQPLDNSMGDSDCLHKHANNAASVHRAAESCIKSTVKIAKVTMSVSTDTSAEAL
UniProt P34972, whole entry: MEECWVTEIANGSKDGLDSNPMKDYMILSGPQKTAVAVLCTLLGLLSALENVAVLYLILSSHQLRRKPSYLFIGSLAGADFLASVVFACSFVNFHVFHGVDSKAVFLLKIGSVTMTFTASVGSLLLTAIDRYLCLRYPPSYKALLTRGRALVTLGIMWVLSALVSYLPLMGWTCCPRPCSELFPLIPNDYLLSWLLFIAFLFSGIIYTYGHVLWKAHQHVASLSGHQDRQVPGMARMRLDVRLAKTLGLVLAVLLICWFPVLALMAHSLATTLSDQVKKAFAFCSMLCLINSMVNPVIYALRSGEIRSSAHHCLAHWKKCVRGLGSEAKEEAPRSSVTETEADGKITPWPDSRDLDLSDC

How the values were obtained:
[1] = target: T1, Cannabinoid receptor 1 (Homo sapiens, UniProt P21554)
[2] = target: Cannabinoid receptor 2 (Homo sapiens, UniProt P34972); experiment: Inverse agonist activity at N-terminal HA-tagged human CB2 receptor expressed in HEK293 cells transfected with YFP-Epac-RLuc assessed as increase in forskolin-stimulated cAMP level at 10 uM by BRET assay; assay type: functional, cell-based
Method in brief: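 Single-concentration screen at 10 µM in CB receptor-expressing HEK293 cells, run with and without CP55,940 as reference agonist. Forskolin-stimulated cAMP read by BRET biosensor. A fall in cAMP is scored as agonism and a rise as inverse agonism.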

[3] = target: T1, Cannabinoid receptor 1; experiment: Displacement of [3H]CP55,940 from N-terminal HA-tagged human CB1 receptor expressed in HEK293 cell membranes after 1 hr by microbeta scintillation counting method

With Cc1ccc(Cn2nc(C(=O)N[C@@H]3C(C)(C)[C@@H]4CC[C@@]3(C)C4)cc2-c2ccc(Cl)c(C)c2)cc1 as the compound, how does the Ki [1] read?
The Ki was 1.7 µM.

And the Activity [2]?
Its Activity is “Active”.

What about the Ki [3] of the same compound?
Its Ki is 5.63 µM.

Activity calls are given as the source filed them. The rule behind the calls is not given here.
